# Values of other authors as cited in patent US20100022659A1, “Methods and Compositions for the Treatment of CNS-Related Conditions” (priority 2004, published 2010).
# Conditions: humans; MAO inhibitors/GAPDHais, Table 2; cited from earlier work
structure (smiles),measurement,value
C#CCN(C)[C@H](C)Cc1ccccc1 [Deprenyl/Selegiline],Human PK,1.5 to 8.6 h
